Test results reported in patent US20160238591A1 (MIT, published 2016).

Columns and labels:
[1] = molecular target: T1, CsgASpyTag amyloid fibrils (SpyTag-displaying curli amyloid fibrils) (Escherichia coli); test: TEM, HRTEM, STEM after 30 minutes in 1x PBS at room temperature
T1 construct: Extracellular amyloid fibril polymerised from many secreted subunits; Tested on live E. coli cells, cell-free, or freeze-dried and re-dispersed; also in mixed fibrils with other CsgA variants; The gene encodes the secretion signal; also called SpyTag-displaying amyloid fibrils; SpyTag-encoded fibrils

[2] = molecular target: T2, wild-type CsgA curli amyloid fibrils (Escherichia coli, UniProt P28307); test: TEM after mixing CdSe/CdS QD-SpyCatcher conjugates with wild-type curli fibrils (FIG. 1O)
T2 construct: Control fibrils without a tag; also called CsgAwt; wild-type curli amyloid fibrils

B1: Cys2-SpyCatcher (other)
chain: MCCSYYHHHHHHDYDIPTTENLYFQGAMVDTLSGLSSEQGQSGDMTIEEDSATHIKFSKRDEDGKELAGATMELRDSSGKTISTWISDGQVKDFYLYPGKYTFVETAAPDGYEVATAITFTVNEQGQVTVNGKATKGDAHI
notes: Tested only as a conjugate on nanocrystals or carbon nanotubes, never as free protein; also called QD-SpyCatcher; CdSe/CdS QD-SpyCatcher conjugates
B1: binds [1]; no binding [2].
